Test [1] has as its target EGFR delE746-A750 (HCC827 cells) (Homo sapiens (Human), UniProt P00533, DEL746-750). The experiment in a line: EGFR signaling (1 hr) immunoblot, HCC827 cells. The class given is cell-based. The note with it: 1 hr treatment, pEGFR. As for the experimental part: (§1) A431 human epidermoid carcinoma, H1975 human NSCLC and HCC827 human NSCLC adenocarcinoma cells were obtained from the American Type Culture Center (Manassas, Va.). A431 cells were grown in DMEM (Invitrogen, Carlsbad, Calif.) supplemented with 10% FBS (HyClone, South Logan, Utah) and 1% Penicillin-Streptomycin (P/S, Lonza, Walkersville, Md.).
(§2) All primary antibodies were obtained from Cell Signaling (Danvers, Mass.) and used at 1:1000. Secondary antibodies were used at 1:10,000. Goat anti-mouse IgG IRDye 800CW antibody was obtained from LiCor Biosciences (Lincoln, Nebr.) and goat anti-rabbit IgG Alexa Fluor 680 was obtained from Invitrogen.
(§3) Cells were grown in 12-well plates (Corning, Coring, N.Y.) to 90% confluence and then incubated in low-serum (0.1% FBS) media for 16-18 hr. […] A431 cells were then stimulated with 50 ng/ml EGF (Peprotech, Rocky Hill, N.J.) for 15 min. After treatment, cell monolayers were washed with cold PBS (Invitrogen) and immediately lysed by scrapping into 60 uL cold Cell Extraction Buffer (Invitrogen) supplemented with Complete Protease inhibitors (Roche, Indianapolis, Ind.) and PhosphoSTOP (Roche) phosphatase inhibitors.
(§4) Phospho-protein signals were quantitated using Odyssey Infrared Imaging (Li-Cor Biosciences).
(§5) Blots were normalized as indicated above. […] Normalized data was fitted using a sigmoidal curve analysis program (Graph Pad Prism version 5) with variable Hill slope to determine the EC50 values.
Background: Immunoblotting shows a protein as a band on a membrane.

Amino acid sequences for entries named in this document (tags omitted). Chains listed by the source or under a name are the forms on record and can include a tag or linker. Residues count along the entry.
UniProt P00533, other isoform, or with tags, fused parts or gaps del 746-750: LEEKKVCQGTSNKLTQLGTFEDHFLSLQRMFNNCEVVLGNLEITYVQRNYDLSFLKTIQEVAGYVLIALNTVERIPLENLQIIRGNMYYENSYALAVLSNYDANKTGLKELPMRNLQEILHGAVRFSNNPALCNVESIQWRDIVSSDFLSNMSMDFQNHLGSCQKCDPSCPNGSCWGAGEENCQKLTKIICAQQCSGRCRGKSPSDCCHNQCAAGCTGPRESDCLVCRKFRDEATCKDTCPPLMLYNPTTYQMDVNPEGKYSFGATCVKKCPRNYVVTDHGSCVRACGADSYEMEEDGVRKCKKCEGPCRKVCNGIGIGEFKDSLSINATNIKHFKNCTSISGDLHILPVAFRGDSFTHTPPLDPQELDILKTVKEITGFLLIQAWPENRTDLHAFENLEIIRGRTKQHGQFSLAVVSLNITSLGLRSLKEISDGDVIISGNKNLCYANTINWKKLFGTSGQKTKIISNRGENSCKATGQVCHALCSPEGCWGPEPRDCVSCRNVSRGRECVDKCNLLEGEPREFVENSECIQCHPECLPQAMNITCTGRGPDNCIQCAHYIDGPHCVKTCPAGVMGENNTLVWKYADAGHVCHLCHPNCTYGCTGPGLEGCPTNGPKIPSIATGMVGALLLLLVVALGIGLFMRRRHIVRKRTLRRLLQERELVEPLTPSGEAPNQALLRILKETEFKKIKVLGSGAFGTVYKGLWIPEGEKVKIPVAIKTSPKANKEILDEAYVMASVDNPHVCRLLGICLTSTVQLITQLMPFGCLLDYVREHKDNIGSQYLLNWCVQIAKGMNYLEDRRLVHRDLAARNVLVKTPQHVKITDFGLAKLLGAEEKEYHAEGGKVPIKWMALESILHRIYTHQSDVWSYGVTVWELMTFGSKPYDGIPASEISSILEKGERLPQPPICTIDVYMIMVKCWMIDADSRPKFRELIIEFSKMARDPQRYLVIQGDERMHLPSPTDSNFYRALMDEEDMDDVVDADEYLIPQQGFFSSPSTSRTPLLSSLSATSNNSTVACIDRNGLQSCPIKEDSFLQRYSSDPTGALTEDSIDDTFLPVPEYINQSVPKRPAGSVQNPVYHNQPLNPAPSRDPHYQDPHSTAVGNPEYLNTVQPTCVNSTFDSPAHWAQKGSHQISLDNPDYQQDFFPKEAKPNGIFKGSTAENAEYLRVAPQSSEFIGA
UniProt P00533, 25-1210: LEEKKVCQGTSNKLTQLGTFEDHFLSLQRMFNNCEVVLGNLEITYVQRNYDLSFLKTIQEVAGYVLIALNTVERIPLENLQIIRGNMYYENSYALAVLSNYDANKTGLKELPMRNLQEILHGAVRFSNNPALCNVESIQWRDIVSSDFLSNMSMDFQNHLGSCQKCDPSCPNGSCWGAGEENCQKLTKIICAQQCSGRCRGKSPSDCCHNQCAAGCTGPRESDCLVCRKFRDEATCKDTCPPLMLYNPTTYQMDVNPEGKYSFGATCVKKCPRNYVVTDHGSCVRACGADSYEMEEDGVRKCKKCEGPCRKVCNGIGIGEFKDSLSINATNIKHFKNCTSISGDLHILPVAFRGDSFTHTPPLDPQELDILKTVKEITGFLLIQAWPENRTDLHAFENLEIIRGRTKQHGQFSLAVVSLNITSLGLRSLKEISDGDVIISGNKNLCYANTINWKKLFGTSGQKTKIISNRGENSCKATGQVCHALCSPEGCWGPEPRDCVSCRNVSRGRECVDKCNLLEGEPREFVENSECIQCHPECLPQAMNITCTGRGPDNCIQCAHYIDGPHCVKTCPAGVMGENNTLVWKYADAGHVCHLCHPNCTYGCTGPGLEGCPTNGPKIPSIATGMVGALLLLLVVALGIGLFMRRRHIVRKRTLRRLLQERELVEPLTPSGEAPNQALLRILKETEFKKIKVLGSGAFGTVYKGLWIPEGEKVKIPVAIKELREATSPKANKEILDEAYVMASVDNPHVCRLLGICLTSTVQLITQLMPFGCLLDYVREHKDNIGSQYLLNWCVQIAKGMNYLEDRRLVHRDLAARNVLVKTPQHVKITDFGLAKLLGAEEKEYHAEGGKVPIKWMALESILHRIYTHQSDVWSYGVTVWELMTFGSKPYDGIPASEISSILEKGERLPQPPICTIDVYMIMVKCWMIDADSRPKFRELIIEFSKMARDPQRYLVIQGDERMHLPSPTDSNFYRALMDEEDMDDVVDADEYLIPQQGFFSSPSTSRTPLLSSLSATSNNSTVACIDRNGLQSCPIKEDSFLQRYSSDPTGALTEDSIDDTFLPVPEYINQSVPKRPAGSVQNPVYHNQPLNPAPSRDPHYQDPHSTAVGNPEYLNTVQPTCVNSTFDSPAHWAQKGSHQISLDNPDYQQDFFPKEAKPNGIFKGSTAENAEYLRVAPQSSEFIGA
UniProt P00533, 25-1210 T790M/L858R: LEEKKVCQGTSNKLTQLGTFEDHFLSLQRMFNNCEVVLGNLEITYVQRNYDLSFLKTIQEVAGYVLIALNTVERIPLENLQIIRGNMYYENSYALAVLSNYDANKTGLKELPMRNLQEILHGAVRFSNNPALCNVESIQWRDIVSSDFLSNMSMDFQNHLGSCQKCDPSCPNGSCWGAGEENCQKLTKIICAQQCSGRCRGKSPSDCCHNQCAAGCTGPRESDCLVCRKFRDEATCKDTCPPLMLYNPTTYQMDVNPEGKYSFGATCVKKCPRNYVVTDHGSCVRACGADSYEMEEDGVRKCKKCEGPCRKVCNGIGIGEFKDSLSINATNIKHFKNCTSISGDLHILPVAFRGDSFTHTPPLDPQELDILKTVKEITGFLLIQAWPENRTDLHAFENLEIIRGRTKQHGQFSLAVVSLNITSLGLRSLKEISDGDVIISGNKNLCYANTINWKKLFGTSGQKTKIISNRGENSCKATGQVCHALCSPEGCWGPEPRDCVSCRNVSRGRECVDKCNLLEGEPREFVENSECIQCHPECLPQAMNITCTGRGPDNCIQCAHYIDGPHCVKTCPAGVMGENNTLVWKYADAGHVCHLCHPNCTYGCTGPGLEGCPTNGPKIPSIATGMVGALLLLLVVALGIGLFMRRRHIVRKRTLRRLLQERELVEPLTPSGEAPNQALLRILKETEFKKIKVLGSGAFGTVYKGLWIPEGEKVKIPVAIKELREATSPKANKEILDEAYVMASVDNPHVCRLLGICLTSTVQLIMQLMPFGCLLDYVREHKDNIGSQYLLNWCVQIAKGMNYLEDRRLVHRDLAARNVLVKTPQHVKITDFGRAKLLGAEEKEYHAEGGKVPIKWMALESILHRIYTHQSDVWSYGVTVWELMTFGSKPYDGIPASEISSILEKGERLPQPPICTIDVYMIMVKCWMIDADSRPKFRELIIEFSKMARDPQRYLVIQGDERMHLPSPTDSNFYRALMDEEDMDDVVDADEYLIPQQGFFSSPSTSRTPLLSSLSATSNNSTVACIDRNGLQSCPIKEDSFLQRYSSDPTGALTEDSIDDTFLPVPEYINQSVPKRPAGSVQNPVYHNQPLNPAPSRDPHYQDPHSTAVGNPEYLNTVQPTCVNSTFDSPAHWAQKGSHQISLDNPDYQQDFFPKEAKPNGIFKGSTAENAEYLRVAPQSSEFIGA

Another test addresses EGFR-WT (Homo sapiens (Human), UniProt P00533). Nature of the test: Omnia assay, EGFR (WT) active enzyme. The class given is biochemical. The conditions noted are these: [EGFR-WT]=5 nM, [ATP]=15 uM; 30 min pre-incubation.
The target in a further test is WT EGFR (A431 cells) (Homo sapiens (Human), UniProt P00533). The experiment in a line: EGFR signaling (1 hr) immunoblot, A431 cells. Type of test: cell-based. The note with it: 1 hr treatment, EGF stimulated, pEGFR. On the procedure: as §1, §2, §3, §4, §5
For the next test, the target named is EGFR T790M/L858R (Homo sapiens (Human), UniProt P00533, L858R/T790M). The experiment in a line: Omnia assay, EGFR (T790M/L858R) active enzyme. The class given is biochemical. The conditions noted are these: [EGFR-T790M/L858R]=2.5 nM, [ATP]=20 uM; 30 min pre-incubation.
Test [2] addresses EGFR L858R/T790M (H1975 cells) (Homo sapiens (Human), UniProt P00533, L858R/T790M). The experiment in a line: EGFR signaling (1 hr) immunoblot, H1975 cells. Type of test: cell-based. The note with it: 1 hr treatment, pEGFR. As for the experimental part: as §1, §2, §3, §4, §5

What is called EC50 is the concentration needed to bring the measured effect to its halfway point. By IC50 is commonly meant the concentration that gives 50% inhibition. A lower IC50 goes with greater potency in that assay.

For `C=CC(=O)Nc1cccc(Oc2nc(Nc3ccccc3OC)ncc2C(F)(F)F)c1` [Compound I-2, N-(3-(2-(2-methoxyphenylamino)-5-(trifluoromethyl)pyrimidin-4-yloxy)phenyl)acrylamide], the EC50 in test [1] was below 10 nM; at WT EGFR (A431 cells), above 1000 nM; in test [2], 10 to 100 nM. For the same compound, the IC50 on EGFR-WT lay in the range of 100 to 300 nM; at EGFR T790M/L858R it was 1 to 10 nM.
As for `C=CC(=O)Nc1cccc(Nc2nc(Nc3ccc(OC)c(OC)c3OC)ncc2Cl)c1` [Compound I-4, N-(3-(5-chloro-2-(2,3,4-trimethoxyphenylamino)pyrimidin-4-ylamino)phenyl)acrylamide], the 50% inhibitory concentration (IC50) was in the range of 30 to 100 nM against EGFR-WT and 1 to 10 nM against EGFR T790M/L858R. Moreover, the concentration for a half-maximal effect (EC50) is above 1000 nM at WT EGFR (A431 cells) and 100 to 500 nM in test [2].
In the same order, the values of `C=CC(=O)Nc1cccc(Oc2nc(Nc3ccc(OC)cc3OC)ncc2C(F)(F)F)c1` [Compound I-9, N-(3-(2-(2,4-dimethoxyphenylamino)-5-(trifluoromethyl)pyrimidin-4-yloxy)phenyl)acrylamide] are 100 to 300 nM, 1 to 10 nM, above 1000 nM and 10 to 100 nM.
For `C=CC(=O)Nc1cccc(Oc2nc(Nc3ccc(OC)cc3OC)ncc2Br)c1` [Compound I-13, N-(3-(5-bromo-2-(2,4-dimethoxyphenylamino)pyrimidin-4-yloxy)phenyl)acrylamide], in that order: 30 to 100 nM, 1 to 10 nM, above 1000 nM and 100 to 500 nM.
For `C=CC(=O)Nc1cccc(Oc2nc(Nc3ccc(OC)cc3OC)ncc2Cl)c1` [Compound I-15, N-(3-(5-chloro-2-(2,4-dimethoxyphenylamino)pyrimidin-4-yloxy)phenyl)acrylamide], in that order: 100 to 300 nM, 1 to 10 nM, above 1000 nM and 100 to 500 nM.
As for `C=CC(=O)Nc1cccc(Nc2nc(Nc3cccc(OC)c3OC)ncc2C(F)(F)F)c1` [Compound I-16, N-(3-(2-(2,3-dimethoxyphenylamino)-5-(trifluoromethyl)pyrimidin-4-ylamino)phenyl)acrylamide], the EC50 in test [1] is below 10 nM; on WT EGFR (A431 cells), above 1000 nM; in test [2], 100 to 500 nM. For the same compound, the values for the 50% inhibitory concentration (IC50) at EGFR-WT and on EGFR T790M/L858R were 100 to 300 nM and 1 to 10 nM, respectively.
For `C=CC(=O)Nc1cccc(Nc2nc(Nc3ccccc3OC)ncc2Br)c1` [Compound I-22, N-(3-(5-bromo-2-(2-methoxyphenylamino)pyrimidin-4-ylamino)phenyl)acrylamide], in that order: above 1000 nM, above 1000 nM, 100 to 500 nM, 100 to 300 nM and 1 to 10 nM.
In the case of `C=CC(=O)Nc1cccc(Oc2nc(Nc3cccc(OC)c3OC)ncc2C(F)(F)F)c1` [Compound I-23, N-(3-(2-(2,3-dimethoxyphenylamino)-5-(trifluoromethyl)pyrimidin-4-yloxy)phenyl)acrylamide], the IC50 against EGFR-WT is above 1000 nM; against EGFR T790M/L858R it was 10 to 30 nM. In addition, the concentration for a half-maximal effect (EC50) (at WT EGFR (A431 cells); in test [2]) was above 1000 nM each time.

These data come from patent publication US9238629B2, “Heteroaryl compounds and uses thereof” (Celgene Avilomics Research, Inc., priority 2010, dated 2016).
